Rango-impB inh: Rango-importin beta binding inhibition; Rango CFP/YFP FRET sensor + importin beta, 45 min; Potency, µM (highest dose often 92.2 µM); actives 0.031% (n = 340,000); AID 540263; calls by dose curve; further: nearly all actives have a fitted effect of over 15% in size
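Inhibition scored from the CFP 486 nm/YFP 530 nm FRET ratio 45 min after adding 0.125 microM importin beta to 50 nM Rango biosensor preincubated 5 min with compound (room temperature, PBS with DTT, Tween-20, BSA). No-importin wells as positive control.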
12-LOX inh: blocks human arachidonate 12S-lipoxygenase; P18054; purified 12hLO, xylenol orange hydroperoxide absorbance; Potency, µM (series often up to 108 µM), most hits filed as inhibitors; actives 1.1% (n = 580,000); AID 1671190
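Hydroperoxide product was detected by ferrous iron/xylenol orange as the 573 to 405 nm absorbance ratio. Arachidonic acid at 40 uM (final) was turned over for 30 min at room temperature by 150 nM human 12hLO, pH 7.0 Hepes buffer, after 15 min compound preincubation.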
TDP1 inh: inhibitors of human tyrosyl-DNA phosphodiesterase TDP1; Q9NUW8; recombinant TDP1, AlphaScreen DNA substrate cleavage; Potency, µM (titrated, usually from 130 µM), usual class: inhibitors; actives 0.28% (n = 350,000); AID 485290; further: nearly all actives have a fitted effect of over 40% in size
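Recombinant human Tdp1 (E. coli-expressed, 1 nM final) preincubated with compounds 15 min at room temperature, then 5'-biotin/3'-phosphotyrosine-FITC DNA substrate (15 nM final) added for 5 min. AlphaScreen beads (10 ug/ml final) added 10 min; cleavage lowers signal.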
TSG101-PTAP inh: blocks PTAP/TSG101 interaction to inhibit HIV-1 budding; Q99816; Fluorescence polarization, FITC-PTAP peptide / Tsg101 binding; Potency, µM (top dose mostly 115 µM), usual class: inhibitors; 340,000 tested, under 10 active; AID 493005; active means well fitted inhibition curve with a large enough effect in the main read-out, with a control signal flat, not every such curve was filed as active; inconclusive means small, poorly fitted or top-dose-only effect, or effect the other way, or a change in a side signal; inactive means no such curve, though single readings can be large or run the other way
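Fluorescence polarization binding of Tsg101 binding domain (10 uM final) to FITC-labeled PTAP peptide (50 nM final) in HEPES pH 7.5 buffer with NaCl, Tween 20, EDTA, TCEP. Compounds added before peptide; binding 20 min at RT.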
Rango dissoc inh: prevents RanGTP from dissociating the Rango-importin beta complex. actives 0.071% (n = 340,000). Potency, µM (highest dose often 46.1 µM). O95149+P62826. Biochemical FRET Rango-importin beta, RanGTP-induced dissociation; calls by dose curve; further: nearly all actives have a fitted effect of over 45% in size
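FRET read at 45 min, room temperature: inhibitors block the CFP/YFP signal rise when RanGTP (0.6 uM Ran, 2 mM GTP, 0.2 uM RCC1) frees Rango (0.1 uM) from importin beta (0.25 uM). Pre-read after 5 min compound exposure flags interference.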
ClpP mod: qHTS Assay for Activators of ClpP; purified B. subtilis ClpP, FRET peptide cleavage, 20 min; Potency, µM (highest dose often 57.5 µM); actives 1.9% (n = 340,000); AID 651965, 2013; active means well fitted falling curve with a large enough effect; inconclusive means small, poorly fitted or top-dose-only effect; inactive means no such curve, though single readings can be large or run the other way; further: the source files actives as falling curves though it sought activators and does not explain the sign; nearly all actives have a fitted effect of over 65% in size
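Purified B. subtilis ClpP, 10 microg/mL final in Tris/HCl pH8 with KCl, BSA, glycerol and Tween-20, cleaved an Abz/nitrotyrosine-quenched decapeptide. Fluorescence (ex 320, em 430) was read at 0 and 20 min at room temperature. Delta was normalized to 5.8 microM ADEP and DMSO/no-enzyme controls.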
Hits are given with their value; . = inactive; ? = inconclusive; / = no result given; ! = a repeat was not active. The list is not random: actives were taken first. Their share in the collection is about 2.4%. Unless noted, the call rests on the fitted dose curve; in most records, active means well fitted curve in the direction sought with a large enough effect; inconclusive means small, poorly fitted or top-dose-only effect, or another doubt; inactive means no such curve, though single readings can be large; an effect the other way counts as inactive or inconclusive.

SMILES	Rango-impB inh	12-LOX inh	TDP1 inh	TSG101-PTAP inh	Rango dissoc inh	ClpP mod
Cc1ccc(Cn2cccc(C(=O)Nc3nc4ccc(C)cc4s3)c2=O)cc1	/	.	.	/	/	.
COc1ccccc1C(=O)Nc1ccc2nc(SCC(=O)N3CCCc4ccccc43)sc2c1	/	.	.	/	/	10µM
O=C(Nc1ccc2nc(SCC(=O)N3CCCc4ccccc43)sc2c1)c1ccccc1F	/	.	.	/	/	17.8µM
O=C(Nc1cccc(C(=O)Nc2cc(C(=O)Nc3ccc([S+](=O)([O-])[O-])c4cc([S+](=O)([O-])[O-])cc(SOOO)c34)ccc2F)c1)Nc1cccc(C(=O)Nc2cc(C(=O)Nc3ccc([S+](=O)([O-])[O-])c4cc([S+](=O)([O-])[O-])cc([S+](=O)([O-])[O-])c34)ccc2F)c1	/	.	2.24µM	/	/	/
Cc1nc(-c2ccc(N(C)C)cc2)cc([C@H]2CN3CC[C@H]2C[C@@H]3CNC(=O)c2ccccc2)n1	/	.	/	/	/	/
COc1ccc2c(c1)CC1(CN2C)C(=O)NC(=O)N(CCc2ccccc2)C1=O (configuration not stated)	?	39.8µM	.	.	?	.
COc1cc2c(cc1OCc1ccccc1)NC(=O)C21CCN(C(=O)c2cccnc2)CC1	/	.	/	/	/	/
CCOC(=O)CC(SP1(=S)OCC2(CCCCC2)CO1)C(=O)OCC (configuration not stated)	.	.	/	?	.	28.2µM
Clc1ccccc1CN1CCN(c2ccccc2)CC1	.	0.891µM	.	.	.	.
Clc1ccc(N2CCN(Cc3ccccc3Cl)CC2)cc1	?	?	.	.	?	.
COc1ccccc1CCC(=O)N1CCC2(CC1)NCc1ccccc1-n1ccnc12	/	.	/	/	/	/
O=C1NC(=O)N(c2ccc3c(c2)OCO3)C(=O)/C1=C\c1ccc(-c2ccccc2C(=O)O)o1	.	?	11.2µM	.	.	/
O=C1NC(=O)N(c2ccc3c(c2)OCO3)C(=O)/C1=C/c1ccc(N2CCCCC2)o1	?	.	.	?	.	.
CCOC(=O)CC(SP(=S)(OC)OC)C(=O)OCC (configuration not stated)	/	23.3µM!	.	/	/	/
CN1Cc2ccccc2-n2ccnc2C12CCN(C(=O)c1ccc(F)c(F)c1)CC2	/	.	/	/	/	/
N#CC(C#N)=NNc1ccc(-n2ccc(C(F)(F)F)n2)cc1	.	28.2µM	.	.	.	/
Cc1cc(C)n(-c2ccc(NN=C(C#N)C#N)cc2)n1	.	?	.	.	.	.
Nc1ccc(Br)cc1C(=O)c1ccccc1Cl	/	.	/	/	/	/
COc1ccc(/C=C/C=C2C(=O)NC(=S)NC2=O)cc1	?	35.5µM	/	.	?	.
O=C1NCc2ccccc2CC12CCCN2Cc1ccnc(Cl)c1 (configuration not stated)	/	.	/	/	/	/
Cc1cccc(-n2c(O)c(C=Nc3ccc(Br)cn3)c(=O)[nH]c2=O)c1	.	?	.	.	.	/
Cc1cccc(-n2c(O)c(C)c(=O)[nH]c2=S)c1	.	44.7µM	.	.	.	.
O=C(CNC(=O)OCc1ccccc1)NCC(=O)Nc1ccc(Br)cc1C(=O)c1ccccc1	.	.	.	.	.	25.1µM
Clc1ccc(Cl)c(-c2ccc(CNC3CN4CCC3CC4)o2)c1 (configuration not stated)	/	8.91µM	/	/	/	/
CC=C(CC)C1(CCC)C(=O)NC(=S)NC1=O	.	?	/	.	.	.
CC=C(C)C1(CCC)C(=O)NC(=S)NC1=O	.	31.6µM	/	.	.	?
CCCCCCCCCCCCCCCC[n+]1ccccc1	65.1µM!	?	.	.	?	.
CC(CNC1CC1)c1ccccc1 (configuration not stated)	/	.	/	/	/	/
CC1=C/C(=N\NC(=S)NCCc2ccccc2)CC(C)(C)C1	?	4.47µM	.	.	.	/
CCCNC(=O)c1c(N)n(CC2CCCO2)c2nc3ccccc3nc12 (configuration not stated)	?	.	.	.	?	17.8µM
